Measurements: US7973034B2, “Amide, aryl sulfonamide, aryl urea, and α,β-diketone derived carboxylesterase inhibitors, and their methods of use” (priority 2003, dated 2011)

Key:
[1] = biological target: T1, human liver carboxylesterase (hCE1) (Homo sapiens, UniProt P23141); experiment: biochemical
T1 sequence (P23141 18-567): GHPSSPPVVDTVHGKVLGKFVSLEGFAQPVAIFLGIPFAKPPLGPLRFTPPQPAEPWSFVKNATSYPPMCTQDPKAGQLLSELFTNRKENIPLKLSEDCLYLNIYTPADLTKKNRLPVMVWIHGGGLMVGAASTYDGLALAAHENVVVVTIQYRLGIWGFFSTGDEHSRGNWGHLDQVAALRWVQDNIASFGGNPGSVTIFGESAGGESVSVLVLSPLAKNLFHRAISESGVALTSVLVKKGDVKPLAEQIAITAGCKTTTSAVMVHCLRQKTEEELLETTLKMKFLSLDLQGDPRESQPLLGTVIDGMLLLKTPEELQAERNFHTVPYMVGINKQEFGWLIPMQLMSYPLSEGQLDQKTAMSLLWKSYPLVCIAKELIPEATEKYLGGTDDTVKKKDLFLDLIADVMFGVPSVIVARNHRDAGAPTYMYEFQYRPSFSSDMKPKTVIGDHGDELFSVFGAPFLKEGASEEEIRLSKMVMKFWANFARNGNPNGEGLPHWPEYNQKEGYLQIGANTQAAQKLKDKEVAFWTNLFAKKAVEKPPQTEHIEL

[2] = biological target: T2, rabbit liver carboxylesterase (rCE) (Oryctolagus cuniculus, UniProt P12337); experiment: biochemical
T2 sequence (P12337 19-565): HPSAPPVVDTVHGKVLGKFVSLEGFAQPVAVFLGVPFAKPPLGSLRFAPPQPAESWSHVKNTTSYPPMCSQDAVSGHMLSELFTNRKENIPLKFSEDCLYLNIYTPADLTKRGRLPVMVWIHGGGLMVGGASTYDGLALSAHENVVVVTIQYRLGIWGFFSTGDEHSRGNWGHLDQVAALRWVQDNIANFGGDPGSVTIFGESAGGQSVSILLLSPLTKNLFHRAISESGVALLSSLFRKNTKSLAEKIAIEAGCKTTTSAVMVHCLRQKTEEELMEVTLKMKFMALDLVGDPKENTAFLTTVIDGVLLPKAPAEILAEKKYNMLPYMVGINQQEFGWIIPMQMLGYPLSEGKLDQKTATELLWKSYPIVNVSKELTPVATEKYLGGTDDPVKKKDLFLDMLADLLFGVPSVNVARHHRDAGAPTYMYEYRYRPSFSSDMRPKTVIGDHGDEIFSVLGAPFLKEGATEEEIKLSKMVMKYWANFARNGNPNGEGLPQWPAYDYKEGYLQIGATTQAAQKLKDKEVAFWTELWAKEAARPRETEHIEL

Row | SMILES | Ki [1] | Ki [2]
1 | O=C(C(=O)c1ccc(O)c([N+](=O)[O-])c1)c1ccc(O)c([N+](=O)[O-])c1 [Compound 36, 1,2-bis(4-hydroxy-3-nitrophenyl)ethane-1,2-dione] | > 100 µM | 
2 | COc1ccc(C(=O)C(=O)c2ccc(OC)c([N+](=O)[O-])c2)cc1[N+](=O)[O-] [Compound 37, 1,2-bis(4-methoxy-3-nitrophenyl)ethane-1,2-dione] |  | > 100 µM
